Data: ChEMBL document CHEMBL5108015, “4,6-Disubstituted-1H-Indazole-4-Amine derivatives with immune-chemotherapy effect and in vivo antitumor activity” (Eur J Med Chem, 2022)

Species: Homo sapiens
Assay: Selectivity index, ratio of IC50 for inhibition of TDO in HEK293-A cells transfected with pCMV-TDO2 to inhibition of IDO in human HeLa cells
Type: cell-based

SMILES: Cc1ccc(CNc2cc(C(F)(F)F)cc3[nH]ncc23)c([N+](=O)O)c1
- Ratio: 100
